Results taken from US20080026998.
pKi: −log10 of the molar value. Read-outs that look alike come from different tables or passages of the source.

Key:
[1] = molecular target: plasmin (human) (UniProt P00747)
[2] = molecular target: plasmin (human) (UniProt P00747); remark: listed apart in the source
[3] = molecular target: plasmin (human) (UniProt P00747); remark: listed apart in the source
[4] = molecular target: plasmin (human) (UniProt P00747); remark: listed apart in the source
[5] = molecular target: plasmin (human) (UniProt P00747); remark: listed apart in the source
[6] = molecular target: plasmin (human) (UniProt P00747); remark: listed apart in the source
[7] = molecular target: trypsin

pKi [1]: 9.10
pKi [2]: 9.46
pKi [3]: 9.52
pKi [4]: 9.64
pKi [5]: 9.44
pKi [6]: 9.12
pKi [7]: 8.30
Substance: BPTI (aprotinin) (from UniProt P00974)
